The target in the experiment is D(2) dopamine receptor (Rattus norvegicus, UniProt P61169). The experiment is described as follows: Inhibitory activity against dopamine receptor D2 by 3H ligand binding experiments. An outline of the steps: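 Competition binding used rat striatal synaptic membranes (10 mg wet tissue per assay) with [3H]spiperone. Test compounds spanned 0.01–1000 μM. Assays were started by adding tissue and stopped by rapid glass-fibre filtration with ice-cold buffer washes. Filters were solubilised and radioactivity counted.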

The chains behind the UniProt entries cited, without tags or fusion partners.
UniProt P61169, whole entry: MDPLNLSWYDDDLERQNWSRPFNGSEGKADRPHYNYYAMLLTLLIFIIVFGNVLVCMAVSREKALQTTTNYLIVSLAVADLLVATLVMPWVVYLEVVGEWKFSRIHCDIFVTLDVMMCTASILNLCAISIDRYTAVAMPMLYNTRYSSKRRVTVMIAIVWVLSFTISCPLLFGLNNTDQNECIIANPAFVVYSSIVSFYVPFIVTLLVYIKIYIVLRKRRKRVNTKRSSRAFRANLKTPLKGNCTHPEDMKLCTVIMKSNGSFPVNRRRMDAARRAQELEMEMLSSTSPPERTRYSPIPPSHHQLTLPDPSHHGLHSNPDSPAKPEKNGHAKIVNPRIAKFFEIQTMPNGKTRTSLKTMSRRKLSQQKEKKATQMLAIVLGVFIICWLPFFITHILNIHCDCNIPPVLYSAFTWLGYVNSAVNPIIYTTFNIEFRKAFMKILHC

Our source for the IC50 values is ChEMBL document CHEMBL1125819, “Novel benzamides as selective and potent gastrokinetic agents. 2. Synthesis and structure-activity relationships of 4-amino-5-chloro-2-ethoxy-N-[[4-(4-fluorobenzyl)-2- morpholinyl]methyl] benzamide citrate (AS-4370) and related compounds” (J Med Chem, 1991).

The IC50 is the concentration at which inhibition is half-maximal. Read a high IC50 as lower potency.

With `COc1cc(N)c(Cl)cc1C(=O)NC1CCN(CCCOc2ccc(F)cc2)CC1OC` (stereo unspecified) [CISAPRIDE], the IC50 came out at 390 nM.
